Legend:
[1] = target: T1, β1-adrenergic receptor (B1-AR) (Homo sapiens, UniProt P08588); assay: cAMP Gs dynamic HTRF assay, cells expressing β1-adrenergic receptor; assay type: cell-based; details: CHO-K1 (HitHunter) cells; read-out: Average pEC50 [Receptor subtype: B1-AR; Cell type: CHO-K1 (HitHunter)] (converted)
T1 construct: expressed in transfected cells
Description: (§1) cAMP homogeneous time-resolved fluorescence (HTRF): experimental methods. Compound efficacy is determined using the cAMP Gs dynamic HTRF assay (Cisbio, catalog #62AM4PEC) largely following the manufacturer's instructions, also detailed below.
(§2) Standard serial dilution curves are 10-point, 5-fold dilutions starting from a highest concentration of 10 μM. […] Assay plates are centrifuged at 500×g for 10 seconds. Compounds and IBMX are prepared at 2× final dose to compensate for addition of cells.
(§3) Cell preparation: 1× stimulation buffer, washing PBS (Dulbecco's phosphate-buffered saline, —Mg —Ca; Caisson Labs, catalog #PBL01), assay PBS (Dulbecco's phosphate-buffered saline, +Mg, +Ca; Caisson Labs, catalog #PBL02) and Versene (0.02% EDTA disodium salt solution in PBS without calcium or magnesium; Caisson Labs, catalog #EDL01) are pre-warmed to 37° C. […] Cells are harvested using assay PBS, counted manually by hemocytometer or by an automated cell counter, pelleted by centrifugation (200×g, 5 minutes) and resuspended in 37° C. […]
(§4) HTRF reagent addition, reading and data analysis: After 30 minutes of cell stimulation with test compound, the assay plates are centrifuged at 500×g for 10 seconds, and incubation was stopped with the addition of 5 μL cAMP-D2 acceptor, diluted 1:21 in detection and lysis buffer 2 (Cisbio 62CL2FDF) was added to all cells. […]

Amino acid sequences for entries named in this document (tags omitted).
UniProt P08588, whole entry: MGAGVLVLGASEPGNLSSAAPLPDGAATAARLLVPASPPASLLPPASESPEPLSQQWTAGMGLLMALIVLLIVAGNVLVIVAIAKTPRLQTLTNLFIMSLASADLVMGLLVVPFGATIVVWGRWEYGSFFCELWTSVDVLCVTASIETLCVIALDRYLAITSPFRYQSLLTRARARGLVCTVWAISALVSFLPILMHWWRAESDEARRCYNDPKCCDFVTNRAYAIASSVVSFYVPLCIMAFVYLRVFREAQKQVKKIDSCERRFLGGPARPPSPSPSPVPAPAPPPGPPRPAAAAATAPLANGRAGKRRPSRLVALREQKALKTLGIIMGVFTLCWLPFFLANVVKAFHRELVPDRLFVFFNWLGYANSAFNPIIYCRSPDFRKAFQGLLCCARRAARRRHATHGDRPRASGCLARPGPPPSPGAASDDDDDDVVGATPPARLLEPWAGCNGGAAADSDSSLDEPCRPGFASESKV
UniProt P07550, whole entry: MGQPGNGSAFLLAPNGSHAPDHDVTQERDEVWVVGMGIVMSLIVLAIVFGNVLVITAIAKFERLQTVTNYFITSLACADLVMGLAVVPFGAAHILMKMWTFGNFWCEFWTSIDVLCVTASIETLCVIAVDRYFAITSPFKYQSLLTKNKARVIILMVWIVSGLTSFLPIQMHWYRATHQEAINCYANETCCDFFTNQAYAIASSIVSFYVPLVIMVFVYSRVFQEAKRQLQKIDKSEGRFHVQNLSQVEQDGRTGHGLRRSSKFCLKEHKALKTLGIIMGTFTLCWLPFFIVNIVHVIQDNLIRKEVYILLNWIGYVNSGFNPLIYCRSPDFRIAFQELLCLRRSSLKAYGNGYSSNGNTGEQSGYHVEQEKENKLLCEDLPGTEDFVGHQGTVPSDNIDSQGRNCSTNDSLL

[2] = target: T2, β2-adrenergic receptor (B2-AR) (Homo sapiens, UniProt P07550); assay: cAMP Gs dynamic HTRF assay, cells expressing β2-adrenergic receptor; assay type: cell-based; details: CHO-K1 (HitHunter) cells; read-out: Average pEC50 [Receptor subtype: B2-AR; Cell type: CHO-K1 (HitHunter)] (converted)
T2 construct: expressed in transfected cells
Description: as §1, §2, §3, §4

For `COc1ccc(C[C@@H](C)NC[C@H](O)c2ccc3c(n2)OCCO3)cc1` [Compound 04-6], the EC50 [1] was 10 to 100 nM and the EC50 [2] was less than 10 nM.
Molecule `COc1ccc(C[C@@H](C)NC[C@H](O)c2ccc3c(n2)CCC3)cc1` [Compound 04-8] has an EC50 [1] of 10 to 100 nM and an EC50 [2] of less than 10 nM.
